# Assays:
# [1] = tested on: subcutaneous SKOV-3 xenograft; assay: In vivo efficacy of anti-EGFR antibody-drug conjugate in xenograft nude mice
# Experimental: Human cancer cell line SKOV-3 (ovarian adenocarcinoma) was implanted s.c. (3×10^6 cells in 50% matrigel) in one flank of female, adult Harlan HSD:athymic nude Foxn1^nu mice. The first dose of the test or control substances was administered when the tumors had grown to average volume of 100 mm^3 (4-8 mm diameter). Tumor length (L) and width (W) were recorded in mm. Tumor volumes (V) in mm^3 were calculated according to the formula V=½L×W^2. Mice with different sized tumors were equally divided into study groups to obtain homogenous groups.
# Test and control substances were administered i.v. three times at seven days' intervals (Table 4).
# [2] = tested on: subcutaneous SKOV-3 xenograft; assay: In vivo efficacy of anti-HER2 antibody-drug conjugates in xenograft nude mice; conditions: 10 mg/kg i.v. three times at seven days' intervals
# [3] = tested on: head-and-neck squamous cell carcinoma cell line HSC-2 (EGFR+); assay: In vitro cytotoxicity, HSC-2 cell viability; assay type: cell-based, Human
# [4] = tested on: multidrug-resistant colorectal carcinoma cell line LS513 (EGFR+); assay: In vitro cytotoxicity, LS513 cell viability; assay type: cell-based, Human; conditions: LS513 multi-drug resistant cells, FIG. 2C
# Experimental: The compounds were assayed 1-2 times in triplicate.
# [5] = tested on: Human ovarian cancer cell line SKOV-3; assay: In vitro cytotoxicity, SKOV-3 cell viability (PrestoBlue); conditions: concentration range wherein viability falls to 50%, lower ends of ranges printed in pM
substance,measurement,setting,value
anti-EGFR1 ADC: N-(6-propargyl-D-galactosyl)-dolastatin 10 conjugated to NHS-PEG4-N3-modified CHO cell produced cetuximab,tumor size (tumor volume),"[1]; 10 mg/kg i.v. three times at seven days' intervals, FIG. 4",Smallest tumors
same,anti-tumor activity in vivo,"[1]; 10 mg/kg i.v. x3, subcutaneous SKOV-3 xenograft nude mice",showed anti-tumor activity
"anti-HER2 ADC DAR=1: N-(6-propargyl-D-galactosyl)-dolastatin 10 conjugated to NHS-PEG4-N3-modified CHO cell produced trastuzumab, drug-antibody ratio 1",tumor growth inhibition compared with unconjugated anti-HER2 antibody and control treatment,[2],inhibited tumor growth more
"anti-HER2 ADC DAR=3: N-(6-propargyl-D-galactosyl)-dolastatin 10 conjugated to NHS-PEG4-N3-modified CHO cell produced trastuzumab, drug-antibody ratio 3",tumor growth inhibition compared with unconjugated anti-HER2 antibody and control treatment,[2],inhibited tumor growth more
same,anti-tumor activity (tumor volume),[2]; FIG. 3A,highest anti-tumor activity among the tested compounds
cetuximab-MODO,effectiveness compared with omalizumab antibody-drug conjugate or unconjugated cetuximab,"[3]; HSC-2, FIG. 2A, concentrations normalized to monomethyldolastatin 10 content",more effective
same,effectiveness compared with unconjugated linker-dolastatin compound 12,"[3]; HSC-2, FIG. 2B",more effective
same,effectiveness compared with cetuximab-VC-MODO,[4],more effective
trastuzumab-MODO: trastuzumab-PEG4-N3 clicked with N-(6-propargyl-D-galactosyl)-dolastatin 10,IC50,[5],10 to 1000 pM

# From patent publication US20150314007A1, “LINKER-PAYLOAD MOLECULE CONJUGATES” (GLYKOS FINLAND OY, priority 2012, published 2015)
